Measurements reported in PMC12903857.
Non-standard residues stand in square brackets, D forms with d. Residues, ends and D or L forms follow the SMILES beside them. pS = N[C@@H](COP(=O)(O)O)C(=O)O

What was measured:
[1] = biological target: T1, 14-3-3σ (Homo sapiens, UniProt P31947); experiment: SPR, binary interaction of 12-mer RAF peptides
T1 sequence (P31947 1-248): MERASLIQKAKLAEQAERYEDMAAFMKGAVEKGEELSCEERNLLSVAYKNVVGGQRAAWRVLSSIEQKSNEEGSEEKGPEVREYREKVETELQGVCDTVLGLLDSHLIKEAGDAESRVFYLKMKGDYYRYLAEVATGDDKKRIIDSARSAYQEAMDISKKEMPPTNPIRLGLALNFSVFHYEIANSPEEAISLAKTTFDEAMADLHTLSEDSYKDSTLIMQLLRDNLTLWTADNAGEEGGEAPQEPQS

[2] = test system: C-RAF pS259; experiment: Protection of phosphorylation, Western blot, HEK293T cells; type: cell-based; settings: 10 μΜ compound, relative to total C-RAF
[3] = test system: A-RAF pS214; experiment: Protection of phosphorylation of A-RAF pS214 site, Western blot, HEK293T cells; type: cell-based
[4] = test system: C-RAF pS259; experiment: Protection of phosphorylation, Western blot, MIA PaCa-2 cells; type: cell-based; settings: endogenous C-RAF pS259 relative to total C-RAF

CSCC[C@H](NC(=O)[C@H](Cc1c[nH]cn1)NC(=O)[C@@H](NC(=O)[C@H](CC(N)=O)NC(=O)[C@@H]1CCCN1C(=O)[C@@H](NC(=O)[C@H](COP(=O)(O)O)NC(=O)[C@@H](NC(=O)[C@H](CO)NC(=O)[C@H](CCCNC(=N)N)NC(=O)[C@H](CCC(N)=O)NC(=O)[C@H](CCCNC(=N)N)NC(C)=O)[C@@H](C)O)[C@@H](C)O)C(C)C)C(N)=O [C-RAF (12-mer), RQRST{pS}TPNVHM] (Ac-RQRST[pS]TPNVHM-NH2; N-terminus and C-terminus assumed)
koff ([1]; read-out: kd / koff, Average ± SD, binary, kinetic fit, n = 2): 0.352 s⁻¹

CC[C@H](C)[C@H](NC(=O)[C@H](CCCNC(=N)N)NC(C)=O)C(=O)N[C@@H](CCCNC(=N)N)C(=O)N[C@@H](CO)C(=O)N[C@H](C(=O)N[C@@H](COP(=O)(O)O)C(=O)N[C@H](C(=O)N1CCC[C@H]1C(=O)N[C@@H](CC(N)=O)C(=O)N[C@H](C(=O)N[C@@H](Cc1c[nH]cn1)C(=O)N[C@@H](CCSC)C(N)=O)C(C)C)[C@@H](C)O)[C@@H](C)O [A-RAF (12-mer), RIRST{pS}TPNVHM] (Ac-RIRST[pS]TPNVHM-NH2; N-terminus and C-terminus assumed)
kon ([1]; read-out: ka, single replicates, binary, kinetic fit, Replicate 1 and 2): 132000 M⁻¹ s⁻¹

O=C(CCl)NCC1CCN(S(=O)(=O)c2ccc(Br)cc2)CC1 [Compound 22]
C-RAF pS259 protection fold change (HEK293T) [2]: 2.4 fold | A-RAF pS214 protection fold change (HEK293T) [3]: 1.2 fold | C-RAF pS259 protection fold change (MIA PaCa-2) [4]: 1.4 fold
